Results published in the NIST ThermoML archive (doi:10.1016/j.jct.2011.11.021).

Experiment: activity coefficient (dimensionless); of the first substance listed, at infinite dilution; xn = mol fraction of the nth substance listed
Conditions: Liquid, Chromatography, x1 = 0

CCCCOCCCC [dibutyl ether] + COCC[N+]1(C)CCOCC1.O=S(=O)([N-]S(=O)(=O)C(F)(F)F)C(F)(F)F
Conditions | activity coefficient
318.15 K | 26.8
328.15 K | 24.9
338.15 K | 23.3
348.15 K | 21.8
358.15 K | 20.4
368.15 K | 19.2
